Molecular target: MBP-SNARE/α-SNAP complex, P63045;P32851;P60881;P81125
Test: pull-down with amylose magnetic beads, SDS-PAGE, densitometry (ImageJ)
Details: chain shown with the change, ADP-AlFx state, parent: est. 1.0, read off a plot

Row | Binder | ratio to parent
1 | N-ethylmaleimide-sensitive factor (NSF), wild type, P18708 E216A (protein) MAGRSMQAARCPTDELSLSNCAVVSEKDYQSGQHVIVRTSPNHKYIFTLRTHPSVVPGSVAFSLPQRKWAGLSIGQEIEVALYSFDKAKQCIGTMTIEIDFLQKKNIDSNPYDTDKMAAEFIQQFNNQAFSVGQQLVFSFNDKLFGLLVKDIEAMDPSILKGEPASGKRQKIEVGLVVGNSQVAFEKAENSSLNLIGKAKTKENRQSIINPDWNFAKMGIGGLDKEFSDIFRRAFASRVFPPEIVEQMGCKHVKGILLYGPPGCGKTLLARQIGKMLNAREPKVVNGPEILNKYVGESEANIRKLFADAEEEQRRLGANSGLHIIIFDEIDAICKQRGSMAGSTGVHDTVVNQLLSKIDGVEQLNNILVIGMTNRPDLIDEALLRPGRLEVKMEIGLPDEKGRLQILHIHTARMRGHQLLSADVDIKELAVETKNFSGAELEGLVRAAQSTAMNRHIKASTKVEVDMEKAESLQVTRGDFLASLENDIKPAFGTNQEDYASYIMNGIIKWGDPVTRVLDDGELLVQQTKNSDRTPLVSVLLEGPPHSGKTALAAKIAEESNFPFIKICSPDKMIGFSETAKCQAMKKIFDDAYKSQLSCVVVDDIERLLDYVPIGPRFSNLVLQALLVLLKKAPPQGRKLLIIGTTSRKDVLQEMEMLNAFSTTIHVPNIATGEQLLEALELLGNFKDKERTTIAQQVKGKKVWIGIKKLLMLIEMSLQMDPEYRVRKFLALLREEGASPLDFD | 0
2 | N-ethylmaleimide-sensitive factor (NSF), wild type, P18708 N214A (protein) MAGRSMQAARCPTDELSLSNCAVVSEKDYQSGQHVIVRTSPNHKYIFTLRTHPSVVPGSVAFSLPQRKWAGLSIGQEIEVALYSFDKAKQCIGTMTIEIDFLQKKNIDSNPYDTDKMAAEFIQQFNNQAFSVGQQLVFSFNDKLFGLLVKDIEAMDPSILKGEPASGKRQKIEVGLVVGNSQVAFEKAENSSLNLIGKAKTKENRQSIINPDWAFEKMGIGGLDKEFSDIFRRAFASRVFPPEIVEQMGCKHVKGILLYGPPGCGKTLLARQIGKMLNAREPKVVNGPEILNKYVGESEANIRKLFADAEEEQRRLGANSGLHIIIFDEIDAICKQRGSMAGSTGVHDTVVNQLLSKIDGVEQLNNILVIGMTNRPDLIDEALLRPGRLEVKMEIGLPDEKGRLQILHIHTARMRGHQLLSADVDIKELAVETKNFSGAELEGLVRAAQSTAMNRHIKASTKVEVDMEKAESLQVTRGDFLASLENDIKPAFGTNQEDYASYIMNGIIKWGDPVTRVLDDGELLVQQTKNSDRTPLVSVLLEGPPHSGKTALAAKIAEESNFPFIKICSPDKMIGFSETAKCQAMKKIFDDAYKSQLSCVVVDDIERLLDYVPIGPRFSNLVLQALLVLLKKAPPQGRKLLIIGTTSRKDVLQEMEMLNAFSTTIHVPNIATGEQLLEALELLGNFKDKERTTIAQQVKGKKVWIGIKKLLMLIEMSLQMDPEYRVRKFLALLREEGASPLDFD | 0.73
3 | N-ethylmaleimide-sensitive factor (NSF), wild type, P18708 N210A (protein) MAGRSMQAARCPTDELSLSNCAVVSEKDYQSGQHVIVRTSPNHKYIFTLRTHPSVVPGSVAFSLPQRKWAGLSIGQEIEVALYSFDKAKQCIGTMTIEIDFLQKKNIDSNPYDTDKMAAEFIQQFNNQAFSVGQQLVFSFNDKLFGLLVKDIEAMDPSILKGEPASGKRQKIEVGLVVGNSQVAFEKAENSSLNLIGKAKTKENRQSIIAPDWNFEKMGIGGLDKEFSDIFRRAFASRVFPPEIVEQMGCKHVKGILLYGPPGCGKTLLARQIGKMLNAREPKVVNGPEILNKYVGESEANIRKLFADAEEEQRRLGANSGLHIIIFDEIDAICKQRGSMAGSTGVHDTVVNQLLSKIDGVEQLNNILVIGMTNRPDLIDEALLRPGRLEVKMEIGLPDEKGRLQILHIHTARMRGHQLLSADVDIKELAVETKNFSGAELEGLVRAAQSTAMNRHIKASTKVEVDMEKAESLQVTRGDFLASLENDIKPAFGTNQEDYASYIMNGIIKWGDPVTRVLDDGELLVQQTKNSDRTPLVSVLLEGPPHSGKTALAAKIAEESNFPFIKICSPDKMIGFSETAKCQAMKKIFDDAYKSQLSCVVVDDIERLLDYVPIGPRFSNLVLQALLVLLKKAPPQGRKLLIIGTTSRKDVLQEMEMLNAFSTTIHVPNIATGEQLLEALELLGNFKDKERTTIAQQVKGKKVWIGIKKLLMLIEMSLQMDPEYRVRKFLALLREEGASPLDFD | 0.65
4 | N-ethylmaleimide-sensitive factor (NSF), wild type, P18708 Q206A (protein) MAGRSMQAARCPTDELSLSNCAVVSEKDYQSGQHVIVRTSPNHKYIFTLRTHPSVVPGSVAFSLPQRKWAGLSIGQEIEVALYSFDKAKQCIGTMTIEIDFLQKKNIDSNPYDTDKMAAEFIQQFNNQAFSVGQQLVFSFNDKLFGLLVKDIEAMDPSILKGEPASGKRQKIEVGLVVGNSQVAFEKAENSSLNLIGKAKTKENRASIINPDWNFEKMGIGGLDKEFSDIFRRAFASRVFPPEIVEQMGCKHVKGILLYGPPGCGKTLLARQIGKMLNAREPKVVNGPEILNKYVGESEANIRKLFADAEEEQRRLGANSGLHIIIFDEIDAICKQRGSMAGSTGVHDTVVNQLLSKIDGVEQLNNILVIGMTNRPDLIDEALLRPGRLEVKMEIGLPDEKGRLQILHIHTARMRGHQLLSADVDIKELAVETKNFSGAELEGLVRAAQSTAMNRHIKASTKVEVDMEKAESLQVTRGDFLASLENDIKPAFGTNQEDYASYIMNGIIKWGDPVTRVLDDGELLVQQTKNSDRTPLVSVLLEGPPHSGKTALAAKIAEESNFPFIKICSPDKMIGFSETAKCQAMKKIFDDAYKSQLSCVVVDDIERLLDYVPIGPRFSNLVLQALLVLLKKAPPQGRKLLIIGTTSRKDVLQEMEMLNAFSTTIHVPNIATGEQLLEALELLGNFKDKERTTIAQQVKGKKVWIGIKKLLMLIEMSLQMDPEYRVRKFLALLREEGASPLDFD | 0.75
5 | N-ethylmaleimide-sensitive factor (NSF), wild type, P18708 I209A (protein) MAGRSMQAARCPTDELSLSNCAVVSEKDYQSGQHVIVRTSPNHKYIFTLRTHPSVVPGSVAFSLPQRKWAGLSIGQEIEVALYSFDKAKQCIGTMTIEIDFLQKKNIDSNPYDTDKMAAEFIQQFNNQAFSVGQQLVFSFNDKLFGLLVKDIEAMDPSILKGEPASGKRQKIEVGLVVGNSQVAFEKAENSSLNLIGKAKTKENRQSIANPDWNFEKMGIGGLDKEFSDIFRRAFASRVFPPEIVEQMGCKHVKGILLYGPPGCGKTLLARQIGKMLNAREPKVVNGPEILNKYVGESEANIRKLFADAEEEQRRLGANSGLHIIIFDEIDAICKQRGSMAGSTGVHDTVVNQLLSKIDGVEQLNNILVIGMTNRPDLIDEALLRPGRLEVKMEIGLPDEKGRLQILHIHTARMRGHQLLSADVDIKELAVETKNFSGAELEGLVRAAQSTAMNRHIKASTKVEVDMEKAESLQVTRGDFLASLENDIKPAFGTNQEDYASYIMNGIIKWGDPVTRVLDDGELLVQQTKNSDRTPLVSVLLEGPPHSGKTALAAKIAEESNFPFIKICSPDKMIGFSETAKCQAMKKIFDDAYKSQLSCVVVDDIERLLDYVPIGPRFSNLVLQALLVLLKKAPPQGRKLLIIGTTSRKDVLQEMEMLNAFSTTIHVPNIATGEQLLEALELLGNFKDKERTTIAQQVKGKKVWIGIKKLLMLIEMSLQMDPEYRVRKFLALLREEGASPLDFD | 0.54
6 | N-ethylmaleimide-sensitive factor (NSF), wild type, P18708 N204A (protein) MAGRSMQAARCPTDELSLSNCAVVSEKDYQSGQHVIVRTSPNHKYIFTLRTHPSVVPGSVAFSLPQRKWAGLSIGQEIEVALYSFDKAKQCIGTMTIEIDFLQKKNIDSNPYDTDKMAAEFIQQFNNQAFSVGQQLVFSFNDKLFGLLVKDIEAMDPSILKGEPASGKRQKIEVGLVVGNSQVAFEKAENSSLNLIGKAKTKEARQSIINPDWNFEKMGIGGLDKEFSDIFRRAFASRVFPPEIVEQMGCKHVKGILLYGPPGCGKTLLARQIGKMLNAREPKVVNGPEILNKYVGESEANIRKLFADAEEEQRRLGANSGLHIIIFDEIDAICKQRGSMAGSTGVHDTVVNQLLSKIDGVEQLNNILVIGMTNRPDLIDEALLRPGRLEVKMEIGLPDEKGRLQILHIHTARMRGHQLLSADVDIKELAVETKNFSGAELEGLVRAAQSTAMNRHIKASTKVEVDMEKAESLQVTRGDFLASLENDIKPAFGTNQEDYASYIMNGIIKWGDPVTRVLDDGELLVQQTKNSDRTPLVSVLLEGPPHSGKTALAAKIAEESNFPFIKICSPDKMIGFSETAKCQAMKKIFDDAYKSQLSCVVVDDIERLLDYVPIGPRFSNLVLQALLVLLKKAPPQGRKLLIIGTTSRKDVLQEMEMLNAFSTTIHVPNIATGEQLLEALELLGNFKDKERTTIAQQVKGKKVWIGIKKLLMLIEMSLQMDPEYRVRKFLALLREEGASPLDFD | 0.93
7 | N-ethylmaleimide-sensitive factor (NSF), wild type, P18708 D212A (protein) MAGRSMQAARCPTDELSLSNCAVVSEKDYQSGQHVIVRTSPNHKYIFTLRTHPSVVPGSVAFSLPQRKWAGLSIGQEIEVALYSFDKAKQCIGTMTIEIDFLQKKNIDSNPYDTDKMAAEFIQQFNNQAFSVGQQLVFSFNDKLFGLLVKDIEAMDPSILKGEPASGKRQKIEVGLVVGNSQVAFEKAENSSLNLIGKAKTKENRQSIINPAWNFEKMGIGGLDKEFSDIFRRAFASRVFPPEIVEQMGCKHVKGILLYGPPGCGKTLLARQIGKMLNAREPKVVNGPEILNKYVGESEANIRKLFADAEEEQRRLGANSGLHIIIFDEIDAICKQRGSMAGSTGVHDTVVNQLLSKIDGVEQLNNILVIGMTNRPDLIDEALLRPGRLEVKMEIGLPDEKGRLQILHIHTARMRGHQLLSADVDIKELAVETKNFSGAELEGLVRAAQSTAMNRHIKASTKVEVDMEKAESLQVTRGDFLASLENDIKPAFGTNQEDYASYIMNGIIKWGDPVTRVLDDGELLVQQTKNSDRTPLVSVLLEGPPHSGKTALAAKIAEESNFPFIKICSPDKMIGFSETAKCQAMKKIFDDAYKSQLSCVVVDDIERLLDYVPIGPRFSNLVLQALLVLLKKAPPQGRKLLIIGTTSRKDVLQEMEMLNAFSTTIHVPNIATGEQLLEALELLGNFKDKERTTIAQQVKGKKVWIGIKKLLMLIEMSLQMDPEYRVRKFLALLREEGASPLDFD | 0.99
8 | N-ethylmaleimide-sensitive factor (NSF), wild type, P18708 I208A (protein) MAGRSMQAARCPTDELSLSNCAVVSEKDYQSGQHVIVRTSPNHKYIFTLRTHPSVVPGSVAFSLPQRKWAGLSIGQEIEVALYSFDKAKQCIGTMTIEIDFLQKKNIDSNPYDTDKMAAEFIQQFNNQAFSVGQQLVFSFNDKLFGLLVKDIEAMDPSILKGEPASGKRQKIEVGLVVGNSQVAFEKAENSSLNLIGKAKTKENRQSAINPDWNFEKMGIGGLDKEFSDIFRRAFASRVFPPEIVEQMGCKHVKGILLYGPPGCGKTLLARQIGKMLNAREPKVVNGPEILNKYVGESEANIRKLFADAEEEQRRLGANSGLHIIIFDEIDAICKQRGSMAGSTGVHDTVVNQLLSKIDGVEQLNNILVIGMTNRPDLIDEALLRPGRLEVKMEIGLPDEKGRLQILHIHTARMRGHQLLSADVDIKELAVETKNFSGAELEGLVRAAQSTAMNRHIKASTKVEVDMEKAESLQVTRGDFLASLENDIKPAFGTNQEDYASYIMNGIIKWGDPVTRVLDDGELLVQQTKNSDRTPLVSVLLEGPPHSGKTALAAKIAEESNFPFIKICSPDKMIGFSETAKCQAMKKIFDDAYKSQLSCVVVDDIERLLDYVPIGPRFSNLVLQALLVLLKKAPPQGRKLLIIGTTSRKDVLQEMEMLNAFSTTIHVPNIATGEQLLEALELLGNFKDKERTTIAQQVKGKKVWIGIKKLLMLIEMSLQMDPEYRVRKFLALLREEGASPLDFD | 0.64
